Assay results from US20170247463A1.

Protein sequences, listed by entry. Tags and fused reporters are not part of them. Residues count along the entry.
UniProt P31994, 43-310: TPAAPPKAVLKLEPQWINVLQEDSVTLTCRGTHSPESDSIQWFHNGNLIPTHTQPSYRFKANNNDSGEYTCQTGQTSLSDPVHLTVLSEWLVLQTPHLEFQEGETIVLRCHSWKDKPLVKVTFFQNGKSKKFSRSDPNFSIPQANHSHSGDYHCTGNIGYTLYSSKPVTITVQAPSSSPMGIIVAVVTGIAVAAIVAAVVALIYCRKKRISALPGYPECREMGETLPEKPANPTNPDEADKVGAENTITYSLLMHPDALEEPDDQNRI

Target: human FcγRIIb (human) (UniProt P31994)
Test: -; range printed as 1.8~2.3

## IgG 1
  Kd: 1800 nM
